Experimental data published in US20190060284A1, “PHARMACOLOGICAL MODULATORS OF NAV1.1 VOLTAGE-GATED SODIUM CHANNELS ASSOCIATED WITH MECHANICAL PAIN” (priority 2016, published 2019).
Entries after “also recorded” stand apart in the source; their conditions may differ. Read-outs that look alike come from different tables or passages of the source.

The chains behind the UniProt entries cited, without tags or fusion partners. Where a name states a change or a piece, a line headed by the entry shows the natural chain unless it says otherwise.
UniProt Q03719: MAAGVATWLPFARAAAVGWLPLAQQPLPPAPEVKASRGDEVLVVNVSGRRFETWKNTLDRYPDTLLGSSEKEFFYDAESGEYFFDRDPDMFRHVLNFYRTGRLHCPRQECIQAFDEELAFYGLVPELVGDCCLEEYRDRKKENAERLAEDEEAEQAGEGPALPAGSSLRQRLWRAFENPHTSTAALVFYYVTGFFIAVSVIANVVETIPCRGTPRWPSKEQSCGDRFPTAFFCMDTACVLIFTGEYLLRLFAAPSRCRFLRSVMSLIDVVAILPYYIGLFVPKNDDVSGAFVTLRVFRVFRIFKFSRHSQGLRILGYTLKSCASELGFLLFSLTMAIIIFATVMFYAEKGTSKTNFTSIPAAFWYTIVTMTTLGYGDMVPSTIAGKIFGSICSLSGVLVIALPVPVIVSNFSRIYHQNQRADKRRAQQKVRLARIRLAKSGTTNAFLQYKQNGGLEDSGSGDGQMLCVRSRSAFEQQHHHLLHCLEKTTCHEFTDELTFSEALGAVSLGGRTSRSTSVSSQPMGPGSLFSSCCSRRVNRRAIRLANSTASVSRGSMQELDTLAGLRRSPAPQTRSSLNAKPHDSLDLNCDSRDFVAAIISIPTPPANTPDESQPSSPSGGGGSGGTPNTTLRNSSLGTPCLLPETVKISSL
UniProt Q9NY46, whole entry S208D: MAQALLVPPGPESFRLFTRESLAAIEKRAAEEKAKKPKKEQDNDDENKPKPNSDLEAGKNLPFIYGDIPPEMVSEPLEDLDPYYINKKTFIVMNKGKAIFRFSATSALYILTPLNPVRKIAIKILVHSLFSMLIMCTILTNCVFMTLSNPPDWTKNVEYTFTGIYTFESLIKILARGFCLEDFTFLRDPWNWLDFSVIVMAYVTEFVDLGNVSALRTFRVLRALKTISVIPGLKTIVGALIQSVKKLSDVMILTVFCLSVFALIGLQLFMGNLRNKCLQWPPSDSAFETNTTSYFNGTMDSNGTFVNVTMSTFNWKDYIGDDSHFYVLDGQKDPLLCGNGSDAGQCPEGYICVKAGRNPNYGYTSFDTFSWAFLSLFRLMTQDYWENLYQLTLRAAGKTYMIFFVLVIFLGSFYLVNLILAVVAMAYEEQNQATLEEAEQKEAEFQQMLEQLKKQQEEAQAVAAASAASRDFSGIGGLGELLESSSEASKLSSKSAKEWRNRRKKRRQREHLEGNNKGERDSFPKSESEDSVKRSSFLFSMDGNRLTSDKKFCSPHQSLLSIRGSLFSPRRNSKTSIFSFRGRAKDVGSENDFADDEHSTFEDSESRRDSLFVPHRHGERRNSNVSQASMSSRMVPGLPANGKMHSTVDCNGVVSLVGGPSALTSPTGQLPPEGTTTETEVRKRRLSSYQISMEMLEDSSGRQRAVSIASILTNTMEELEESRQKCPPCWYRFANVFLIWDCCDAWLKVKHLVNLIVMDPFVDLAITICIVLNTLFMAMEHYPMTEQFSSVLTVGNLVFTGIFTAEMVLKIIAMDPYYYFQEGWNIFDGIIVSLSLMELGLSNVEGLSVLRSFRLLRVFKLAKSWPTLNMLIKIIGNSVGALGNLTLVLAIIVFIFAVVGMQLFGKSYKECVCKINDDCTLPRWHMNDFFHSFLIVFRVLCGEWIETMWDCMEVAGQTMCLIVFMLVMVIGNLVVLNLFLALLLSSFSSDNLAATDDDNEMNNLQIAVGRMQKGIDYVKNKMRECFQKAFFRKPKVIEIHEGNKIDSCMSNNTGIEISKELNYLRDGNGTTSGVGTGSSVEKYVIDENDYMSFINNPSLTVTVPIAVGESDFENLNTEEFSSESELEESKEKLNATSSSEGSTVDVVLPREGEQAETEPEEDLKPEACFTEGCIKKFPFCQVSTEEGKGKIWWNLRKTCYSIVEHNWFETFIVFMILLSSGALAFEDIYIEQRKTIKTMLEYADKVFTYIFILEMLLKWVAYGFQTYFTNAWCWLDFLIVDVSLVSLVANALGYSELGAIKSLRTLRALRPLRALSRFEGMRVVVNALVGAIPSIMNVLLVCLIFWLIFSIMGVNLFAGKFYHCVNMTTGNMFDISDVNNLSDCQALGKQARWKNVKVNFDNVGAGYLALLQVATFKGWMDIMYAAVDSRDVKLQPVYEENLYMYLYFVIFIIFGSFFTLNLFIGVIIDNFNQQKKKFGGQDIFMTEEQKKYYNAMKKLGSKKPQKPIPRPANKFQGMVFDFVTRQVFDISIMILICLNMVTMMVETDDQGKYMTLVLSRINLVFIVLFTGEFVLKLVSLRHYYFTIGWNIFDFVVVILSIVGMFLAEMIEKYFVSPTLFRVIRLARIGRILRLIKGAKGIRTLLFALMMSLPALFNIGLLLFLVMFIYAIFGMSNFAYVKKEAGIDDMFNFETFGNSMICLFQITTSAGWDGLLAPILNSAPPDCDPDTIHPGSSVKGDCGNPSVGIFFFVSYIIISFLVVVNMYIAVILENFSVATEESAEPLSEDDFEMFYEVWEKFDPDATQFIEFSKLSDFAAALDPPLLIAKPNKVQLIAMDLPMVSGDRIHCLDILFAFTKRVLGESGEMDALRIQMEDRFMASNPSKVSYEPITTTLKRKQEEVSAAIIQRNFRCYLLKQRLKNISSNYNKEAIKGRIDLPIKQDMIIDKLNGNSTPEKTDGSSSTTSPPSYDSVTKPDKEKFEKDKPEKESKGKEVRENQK
UniProt Q99250, whole entry: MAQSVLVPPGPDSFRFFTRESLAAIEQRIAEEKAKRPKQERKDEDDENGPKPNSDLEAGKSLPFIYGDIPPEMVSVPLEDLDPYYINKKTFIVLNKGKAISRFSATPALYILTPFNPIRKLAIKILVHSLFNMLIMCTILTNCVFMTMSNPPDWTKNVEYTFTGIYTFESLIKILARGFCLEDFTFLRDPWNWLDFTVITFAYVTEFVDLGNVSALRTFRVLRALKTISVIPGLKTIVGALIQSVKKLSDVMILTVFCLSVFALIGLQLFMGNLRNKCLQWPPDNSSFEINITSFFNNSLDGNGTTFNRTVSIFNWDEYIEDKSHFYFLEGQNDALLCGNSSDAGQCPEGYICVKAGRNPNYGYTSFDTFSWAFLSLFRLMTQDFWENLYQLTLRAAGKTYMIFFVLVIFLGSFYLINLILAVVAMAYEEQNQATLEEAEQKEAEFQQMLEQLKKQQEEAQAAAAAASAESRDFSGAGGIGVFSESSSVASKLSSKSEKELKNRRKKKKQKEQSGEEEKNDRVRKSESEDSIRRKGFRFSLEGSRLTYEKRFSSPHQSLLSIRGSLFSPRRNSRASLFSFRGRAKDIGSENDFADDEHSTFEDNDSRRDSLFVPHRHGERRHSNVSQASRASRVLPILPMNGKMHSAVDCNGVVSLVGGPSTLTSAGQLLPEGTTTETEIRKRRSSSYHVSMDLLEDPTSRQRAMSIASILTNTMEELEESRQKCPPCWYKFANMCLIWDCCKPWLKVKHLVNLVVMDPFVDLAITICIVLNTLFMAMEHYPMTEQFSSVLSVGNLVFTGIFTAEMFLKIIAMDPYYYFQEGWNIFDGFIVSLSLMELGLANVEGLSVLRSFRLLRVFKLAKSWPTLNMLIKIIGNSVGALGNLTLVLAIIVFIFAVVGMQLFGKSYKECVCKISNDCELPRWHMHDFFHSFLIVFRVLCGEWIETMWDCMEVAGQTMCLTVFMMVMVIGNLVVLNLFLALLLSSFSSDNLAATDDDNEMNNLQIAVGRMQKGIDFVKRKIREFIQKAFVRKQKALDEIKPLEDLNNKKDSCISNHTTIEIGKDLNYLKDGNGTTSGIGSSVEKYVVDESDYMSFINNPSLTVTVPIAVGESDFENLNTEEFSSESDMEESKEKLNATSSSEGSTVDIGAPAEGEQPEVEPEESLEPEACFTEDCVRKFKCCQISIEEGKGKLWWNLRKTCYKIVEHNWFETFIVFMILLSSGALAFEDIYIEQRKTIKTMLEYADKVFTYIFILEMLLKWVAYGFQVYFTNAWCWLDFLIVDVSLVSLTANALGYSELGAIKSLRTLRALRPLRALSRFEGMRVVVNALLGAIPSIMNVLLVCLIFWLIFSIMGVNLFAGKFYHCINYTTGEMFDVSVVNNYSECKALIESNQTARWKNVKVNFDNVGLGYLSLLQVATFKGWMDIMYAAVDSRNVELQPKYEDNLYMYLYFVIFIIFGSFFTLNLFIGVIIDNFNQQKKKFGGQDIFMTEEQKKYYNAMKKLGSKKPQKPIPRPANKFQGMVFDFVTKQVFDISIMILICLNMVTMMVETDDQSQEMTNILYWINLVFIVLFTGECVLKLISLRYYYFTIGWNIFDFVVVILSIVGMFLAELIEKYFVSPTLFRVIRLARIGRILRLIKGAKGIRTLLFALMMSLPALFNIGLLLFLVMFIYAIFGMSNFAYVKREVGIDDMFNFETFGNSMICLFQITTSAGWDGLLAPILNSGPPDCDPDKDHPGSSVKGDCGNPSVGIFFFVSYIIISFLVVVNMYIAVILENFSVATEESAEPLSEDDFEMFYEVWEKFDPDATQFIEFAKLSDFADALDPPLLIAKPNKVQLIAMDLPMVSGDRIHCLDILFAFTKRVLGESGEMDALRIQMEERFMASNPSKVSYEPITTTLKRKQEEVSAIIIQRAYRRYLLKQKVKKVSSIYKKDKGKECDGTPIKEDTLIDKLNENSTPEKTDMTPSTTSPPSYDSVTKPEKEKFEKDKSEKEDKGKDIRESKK
UniProt Q9NSA2: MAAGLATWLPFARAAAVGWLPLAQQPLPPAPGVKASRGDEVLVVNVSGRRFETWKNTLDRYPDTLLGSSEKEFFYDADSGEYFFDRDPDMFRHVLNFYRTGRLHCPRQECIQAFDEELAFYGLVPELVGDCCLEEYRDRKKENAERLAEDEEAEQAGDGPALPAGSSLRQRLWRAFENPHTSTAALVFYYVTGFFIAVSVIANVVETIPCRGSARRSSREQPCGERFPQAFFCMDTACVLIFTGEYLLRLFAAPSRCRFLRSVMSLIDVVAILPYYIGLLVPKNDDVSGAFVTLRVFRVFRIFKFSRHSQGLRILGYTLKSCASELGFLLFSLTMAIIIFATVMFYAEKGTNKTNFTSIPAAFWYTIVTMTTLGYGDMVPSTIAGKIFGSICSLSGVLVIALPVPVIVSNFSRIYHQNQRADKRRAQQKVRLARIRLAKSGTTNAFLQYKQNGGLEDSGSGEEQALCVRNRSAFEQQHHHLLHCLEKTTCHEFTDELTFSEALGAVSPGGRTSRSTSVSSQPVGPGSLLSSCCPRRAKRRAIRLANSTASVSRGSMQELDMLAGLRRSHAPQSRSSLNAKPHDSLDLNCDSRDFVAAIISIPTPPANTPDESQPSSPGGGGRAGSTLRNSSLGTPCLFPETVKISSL

Key:
[1] = tested on: rKv2.1 channels containing the S3b-S4 toxin-binding region from each of the four hNav1.9 domains; assay type: cell-based, rat/human
mouse hind paw = assay: Hindpaw nocifensive response (licking/biting) after intraplantar injection; assay type: in vivo
Experimental: (§1) For behavioral experiments in FIG. 4, adult mice (6-12 weeks) were used. Male and female mice were first considered separately in hindpaw nocifensive response experiments. […] Therefore, male and female behavioral responses were pooled and subsequent experiments were performed on both male and female mice for CKO and WT littermate experiments, or only male mice for other conditions (e.g. Cap ablation). Nocifensive responses were recorded during a 20 minute observation period immediately following intraplantar injections (10 μl PBS with or without 5 μM Hm1a). Licking/biting behavior was scored as seconds of behavior with the experimenter blinded to injection condition and experimental cohort (WT, CKO or Cap Ablated mice). Hargreaves and Von Frey tests were performed 30 minutes after intraplantar injection of 500 nM Hm1a or Hm1b. I.t. cap ablation was performed as previously described^34, and i.t. cap treated mice were tested on a hot plate to ensure ablation of TRPV1+afferents. Ablation was also confirmed by histology.

brain = details: previously shown; cited from earlier work
rKv2.1 = assay: Oocyte recording of rKv2.1; assay type: cell-based, rat; details: unmodified rKv2.1
[2] = tested on: mechanical response thresholds; assay: Von Frey mechanical response thresholds after intraplantar toxin; assay type: in vivo, mouse
Experimental: as §1

dorsal horn neurons = assay: c-Fos induction in spinal cord dorsal horn; assay type: in vivo, mouse; details: Hm1a 5 μM intraplantar; superficial lamina ipsilateral to injection; 90 minutes
From the text: Affymetrix was commissioned to design a Type 1 probe set to mouse Nav1.1 (Scn1a, NM_018733.2) and Type 6 probe sets to mouse TRPV1 (TrpV1, NM_001001445.2), mouse Nav1.7 (Scn9a, NM_001290674.1), mouse 5HT3 (Htr3a, NM_001099644.1), and mouse TRPM8 (Trpm8, NM_134252.3) coding regions. We used the following primary antibodies: mouse anti-NF200 (1:10,000, Sigma), rabbit anti-CGRP (1:10,000, Peninsula Labs), and rabbit anti-TH (1:5,000, AbCam). We used fluorophore-conjugated secondary antibodies raised in goat against mouse or rabbit, as appropriate (1:1,000, Alexa Fluor 488, Life Technologies). To identify IB4-binding cells, biotinylated IB4 (1:1,000, Vector Labs) and fluorophore-conjugated streptavidin (1:1,000, Alexa Fluor 488, Life Technologies) were used in place of primary and secondary antibodies. Fos staining was performed 90 minutes after hindpaw injection of Hm1a or PBS. Spinal cord sections were prepared from lumbar L4/L5 and stained with rabbit anti-Fos (1:5,000, CalBiochem). ATF3 antibody (Santa Cruz Biotechnology) was used at 1:2000.

[3] = tested on: mechanonociceptive Aδ fibers (AM fibers); assay: Ex vivo skin-nerve recordings; assay type: cell-based, mouse; details: 1 μM Hm1a on cutaneous receptive fields; 15, 50, 100 mN
[4] = tested on: paw withdrawal from noxious heat stimulus; assay: Hargreaves' test (noxious heat); assay type: in vivo, mouse
Experimental: as §1

mKv4.1 = mKv4.1 (Mus musculus, UniProt Q03719); assay: Oocyte recording of mKv4.1 current; assay type: cell-based
hNav1.3 = hNav1.3 (Homo sapiens, UniProt Q9NY46); assay type: cell-based; details: compared with hNav1.1; 100 nM
[5] = tested on: splanchnic colonic afferents (high-threshold mechanoreceptors); assay: Ex vivo gut-nerve single-unit recordings; assay type: cell-based, mouse; details: Hm1a 100 nM
Experimental: In vitro single-unit extracellular recordings of action potential discharge were made from splanchnic colonic afferents. Recordings were made from healthy or CVH mice using standard protocols^61-63. Baseline mechanosensitivity was determined in response to application of a 2 g von frey hair (vfh) probe to the afferent receptive field for 3 seconds. This process was repeated 3-4 times, separated each time by 10 seconds. Mechanosensitivity was then re-tested after the application of Hm1a (100 nM) or the Nav1.1 blocker ICA-121432 (500 nM) or a combination of both ICA-121432 (500 nM) and Hm1a (100 nM). Data are presented as spikes/s and are expressed as mean±SEM.
Colitis was induced by administration of TNBS as described previously^62,63. Briefly, 13 week old anaesthetized mice were administered an intra-colonic enema of 0.1 mL TNBS (130 μg/mL in 30% EtOH) via a polyethylene catheter^62,63,66. Histological examination of mucosal architecture, cellular infiltrate, crypt abscesses, and goblet cell depletion confirmed significant TNBS-induced damage by day 3 post-treatment, which largely recovered by day 7, and fully recovered by 28 days. […] As such, they are termed ‘chronic visceral hypersensitivity’ (CVH) mice^62,63,66,68.
Ex vivo single-unit extracellular recordings of action potential discharge were made from splanchnic colonic afferents. Recordings were made from healthy or CVH mice using standard protocols (e.g. Brierley, S. M., Jones, R. C., III, Gebhart, G. F. & Blackshaw, L. A. Splanchnic and pelvic mechanosensory afferents signal different qualities of colonic stimuli in mice. Gastroenterology 127, 166-178 (2004)). Baseline mechanosensitivity was determined in response to application of a 2-g Von Frey hair probe to the afferent receptive field for 3 s. This process was repeated 3-4 times, separated each time by 10 s. Mechanosensitivity was then re-tested after the application of Hm1a (100 nM) or the Nav1.1 blocker compound B (100 μM) or a combination thereof. Instantaneous frequency is defined as the inverse of the time interval between an action potential and the previous action potential. Group data are presented as spikes per second and are expressed as mean±s.e.m.

hNav1.2 = hNav1.2 (Homo sapiens, UniProt Q99250); assay type: cell-based; details: compared with hNav1.1; 100 nM
[6] = tested on: rNav1.4 backbone chimeras containing S1-S2, S3b-S4 and/or S5-S6 of hNav1.1; assay type: cell-based, rat/human
[7] = biological target: Kv4.1 voltage-gated potassium (Kv) channels (Homo sapiens, UniProt Q9NSA2); details: previously described; cited from earlier work
hNav1.4 -1.8 = assay type: cell-based, human; details: 100 nM
[8] = tested on: cultured somatosensory neurons (TG, DRG); assay: Ratiometric calcium imaging of cultured sensory neurons; assay type: cell-based, mice or rats
hNav1.1 = hNav1.1 (Homo sapiens, UniProt P35498); assay type: cell-based
[9] = tested on: rKv2.1 chimeras containing the S3b-S4 motif of each of four hNav1.1 domains (DI-DIV); assay type: cell-based, rat/human
rNav1.4 = rNav1.4 (Rattus norvegicus, UniProt P15390); assay: Oocyte recording of rNav1.4; assay type: cell-based; details: unmodified Nav1.4
colonic DRG neurons = assay: Whole-cell current clamp of retrogradely traced colonic DRG neurons; assay type: cell-based, mouse
mouse TG neurons = assay: Whole cell patch clamp of cultured TG neurons; assay type: cell-based

CC(C)C[C@@H]1NC(=O)[C@H](Cc2ccc(O)cc2)NC(=O)[C@H](CCCNC(=N)N)NC(=O)[C@@H](NC(=O)[C@@H](N)CCC(=O)O)CSSC[C@@H]2NC(=O)[C@@H]3CSSC[C@@H](C(=O)N[C@@H](C)C(=O)N[C@@H](Cc4c[nH]c5ccccc45)C(=O)N[C@@H](CC(=O)O)C(=O)NCC(=O)N[C@H](C(=O)N[C@@H](Cc4ccccc4)C(=O)N[C@@H](CO)C(=O)O)[C@@H](C)O)NC(=O)[C@H](Cc4ccc(O)cc4)NC(=O)[C@H](CCCCN)NC(=O)[C@H](Cc4c[nH]c5ccccc45)NC(=O)[C@H](CC(=O)O)NC(=O)[C@H](CO)NC(=O)[C@H](CCCNC(=N)N)NC(=O)[C@H](CSSC[C@H](NC(=O)CNC(=O)CNC(=O)[C@H](Cc4ccccc4)NC1=O)C(=O)N[C@@H](CO)C(=O)N[C@@H](CO)C(=O)N[C@@H]([C@@H](C)O)C(=O)N[C@@H](CO)C(=O)N[C@@H](CC(=O)O)C(=O)N3)NC(=O)[C@H](CO)NC(=O)[C@H](CC(C)C)NC(=O)[C@H](Cc1c[nH]cn1)NC(=O)[C@H](CCCCN)NC2=O [Hm1a, δ-theraphotoxin-Hm1a]
toxin sensitivity [1]: toxin insensitive
nocifensive responses (licking or biting of injected paw) (mouse hind paw; Hm1a 5 μM in 10 μl intraplantar, WT mice, 20 minute observation): immediate and robust nocifensive responses
nocifensive behavior in Per-Cre x Floxed-Nav1.1 (CKO) mice (mouse hind paw; Hm1a 5 μM in 10 μl, CKO versus WT): significantly greater responses to toxin in WT littermate; also recorded: significantly attenuates; also recorded: significantly reduced
nocifensive behavior after ablation of TRPV1 fibers (mouse hind paw; Hm1a 5 μM in 10 μl, intrathecal capsaicin ablated mice): persisted; also recorded: unaffected
effect of injection into the brain (brain): convulsions and rapid death
toxin sensitivity (rKv2.1): normally insensitive
mechanical sensitization, dependence on TRPV1-expressing fibers ([2]; 500 nM Hm1a, TRPV1-ablated mice): not dependent on TRPV1-expressing fibers
mechanical sensitization in Nav1.1-peripherin Cre (CKO) animals ([2]; 500 nM Hm1a, ipsilateral and contralateral paws): significantly attenuates; also recorded: equivalently reduced
sensitization to mechanical stimulation ([2]; 500 nM in 10 μl intraplantar, WT mice, 30 minutes after injection): robust sensitization to mechanical stimulation
mechanical sensitization of injected and contralateral paw ([2]; unilateral injection of Hm1a 500 nM): robust and equivalent mechanical sensitization
Fos immunoreactivity in dorsal horn neurons (dorsal horn neurons): significantly increases Fos immunoreactivity
firing rate of AM fibers during mechanical stimuli [3]: significantly increases firing rate
sensitivity to heat ([4]; 500 nM in 10 μl intraplantar, 30 minutes after injection): does not alter sensitivity to heat
contralateral heat sensitivity ([4]; 500 nM unilateral injection): no change in heat sensitivity
block of mKv4.1 (mKv4.1; 1 μM native Hm1a): fails to block
block of mKv4.1 current (mKv4.1; high concentrations (up to 5 μM) of synthetic Hm1a): < 20%
effect on fast inactivation (hNav1.3): substantially weaker effects
Hm1a-responsive fibers (responders/fibers) ([5]; CVH mice): 4/11
mechanically-evoked responses of Hm1a-responsive fibers ([5]; CVH mice): significant increase in mechanically-evoked responses
subset of CVH fibers with enhanced mechanically-evoked spiking ([5]; CVH mice): 36%
sub-population of high-threshold colonic afferents with increased mechanically-evoked spiking ([5]; healthy mice): 40%
fibers that responded to Hm1a (responders/fibers) ([5]; healthy mice, responder = 15% increase over baseline): 6/15
effect on fast inactivation (hNav1.2): substantially weaker effects
toxin sensitivity ([6]; Nav1.4 with S3b-S4 region of hNav1.1 only): did not confer toxin sensitivity
toxin sensitivity ([6]; Nav1.4 with S3b-S4 region plus S1-S2 loop of Nav1.1): resulted in toxin sensitivity; also recorded: fully toxin sensitive
block of Kv4.1 [7]: moderate-affinity blocker
effect on fast inactivation (hNav1.4 -1.8): no effect
Hm1a responders among TG neurons ([8]; TG neurons cultured from newborn (P0) mice): 13%
calcium responses ([8]; synthetic Hm1a (500 nM), rat DRG neurons): triggers calcium responses
effect on Nav1.1 (hNav1.1; 1 μM native Hm1a): saturating effect
speed and extent of fast inactivation (inactivation tau) (hNav1.1; Hm1a 100 nM, range of voltages): inhibits both the speed and extent of fast inactivation; also recorded: toxin-induced slowing
EC50 (hNav1.1; Xenopus oocytes, read-out: EC50, inhibition of fast inactivation): 38 ± 6 nM
toxin sensitivity (hNav1.1; hNav1.1 wild type, oocytes): fully sensitive
toxin sensitivity of S3b-S4 chimeras [9]: susceptible; also recorded: Only the DIV chimera displays toxin sensitivity
toxin sensitivity (rNav1.4): completely insensitive
Hm1a-responsive CVH neurons (responders/neurons) (colonic DRG neurons; CVH mice): 7/11
colonic DRG neurons with increased electrical excitability (colonic DRG neurons; CVH mice): 64%
rheobase (colonic DRG neurons; CVH mice, Hm1a-responsive neurons): significantly decreases rheobase
action potential firing at 2x rheobase (colonic DRG neurons; CVH mice, Hm1a-responsive neurons, n=7): significantly increased action potential firing
subset of colonic DRG neurons with reduced threshold for action potential firing (colonic DRG neurons; healthy mice): 45%
number of action potentials at 2× rheobase (colonic DRG neurons; healthy mice, Hm1a-responsive neurons): not to a level that reached statistical significance
rheobase (colonic DRG neurons; healthy mice, Hm1a-responsive neurons, Hm1a (10 nM)): significant reduction in rheobase
sub-population of neurons with reduction in rheobase (responders/neurons) (colonic DRG neurons; healthy mice, Hm1a (10 nM), responder ≥10% change in rheobase): 5/11
AP firing at 2× rheobase in CVH versus normal Hm1a-responsive neurons (colonic DRG neurons; in the presence of Hm1a): significantly more AP firing
spike frequency (mouse TG neurons; 20 pA current injection, Hm1a 500 nM): robustly enhances
Hm1a responsive neurons displaying similar effect of toxin on sodium current inactivation (mouse TG neurons; P0 mouse TG neurons, steps to −30 mV from −90 mV): 15/15
outward K+ currents (mouse TG neurons; cultured sensory neurons, 500 nM Hm1a): unaffected
resting membrane potential Vm after Hm1a (mouse TG neurons; current clamp, Hm1a-responsive TG neurons, before Hm1a −55±6 mV): −56±6 mV
Nav current inactivation (mouse TG neurons; whole-cell patch-clamp, TG neurons): robustly inhibits
